Like-named read-outs stand apart in the source and are kept apart here.
Assays:
Assay type in all cases: cell-based, human
[1] = tested on: OE33 esophageal carcinoma cells; assay: Cell growth inhibition (CellTiter-Glo), OE33; conditions: for IC50: 5 day treatment, read-out: IC50 cell growth inhibition, single agent
Text: (§1) Esophageal carcinoma cell line OE33 was purchased from ECACC European Collection of Cell Cultures (UK). Breast cancer cell line JIMT-1 and gastric carcinoma cell line MKN-45 were purchased from Deutsche Sammlung von Mikroorganismen and Zellkulturen GmbH (Germany); KPL-4, a human breast cancer cell line was kindly provided by Prof. J Kurebayashi (Kawasaki Medical School, Kurashiki, Japan). […] The LICR-LON-HN5 head and neck carcinoma cell line (HN5) was a gift from the Institute of Cancer Research, Surrey, U.K. HN5C12 was developed by single-cell cloning of HN5 followed by exposure to increasing concentrations of lapatinib. […] Cell growth inhibition was determined via CellTiter-Glo cell viability assays. […] BT474-J4 and HN5C12 were washed with PBS and plated in their culture media without lapatinib. […] ATP levels were determined by adding Cell Titer Glo0 (Promega), incubating for 20 minutes then the luminescent signal was read on the SpectraMax M5 plate with a 0.5 second integration time. Cell growth was calculated relative to vehicle (DMSO) treated control wells. […] y=([…]) where A is the minimum response (ymin), B is the maximum response (ymax), c is the inflection point of the curve (EC50), d is the Hill coefficient, and x is the log10 compound concentration (moles/L). CI values were calculated with the interpolated IC50 values and the mutually non-exclusive equation derived by Chou and […](a)+Db/IC50(b)+(Da×Db)/(IC50(a)×IC50(b)) where IC50(a) is the IC50 of the inhibitor A; IC50(b) is the IC50 for the inhibitor B; […] Excess Over Highest Single Agent (EOHSA) is defined as a statistically significant improvement in the combination compared to the component monotherapies. […] See Borisy et al. (2003) or Hung et al. (1993) for examples and discussion. […] EOHSA at each dose was calculated as the minimum difference in average % inhibition between the combination and each monotherapy, from the appropriate ANOVA contrast. […] The p-values for both synergy and antagonism were calculated using this adjustment.

[2] = tested on: BT474 breast carcinoma cells; assay: Cell growth inhibition (CellTiter-Glo), BT474; conditions: BT474, with HGF, 5 days of treatment (FIG. 7)
Text: Esophageal carcinoma cell line OE33 was purchased from ECACC European Collection of Cell Cultures (UK). Breast cancer cell line JIMT-1 and gastric carcinoma cell line MKN-45 were purchased from Deutsche Sammlung von Mikroorganismen and Zellkulturen GmbH (Germany); KPL-4, a human breast cancer cell line was kindly provided by Prof. J Kurebayashi (Kawasaki Medical School, Kurashiki, Japan). […] The LICR-LON-HN5 head and neck carcinoma cell line (HN5) was a gift from the Institute of Cancer Research, Surrey, U.K. HN5C12 was developed by single-cell cloning of HN5 followed by exposure to increasing concentrations of lapatinib. […] Cell growth inhibition was determined via CellTiter-Glo cell viability assays. […] BT474-J4 and HN5C12 were washed with PBS and plated in their culture media without lapatinib. […] ATP levels were determined by adding Cell Titer Glo0 (Promega), incubating for 20 minutes then the luminescent signal was read on the SpectraMax M5 plate with a 0.5 second integration time. Cell growth was calculated relative to vehicle (DMSO) treated control wells. […] EOHSA at each dose was calculated as the minimum difference in average % inhibition between the combination and each monotherapy, from the appropriate ANOVA contrast. […] The p-values for both synergy and antagonism were calculated using this adjustment.

[3] = tested on: N87 gastric carcinoma cells; assay: Cell growth inhibition (CellTiter-Glo), N87; conditions: for IC50: 5 day treatment, read-out: IC50 cell growth inhibition, single agent
Text: as §1

[4] = tested on: BT474-J4 lapatinib resistant breast carcinoma cells; assay: Cell growth inhibition (CellTiter-Glo), BT474-J4; conditions: BT474-J4, 5 days of treatment
Text: Esophageal carcinoma cell line OE33 was purchased from ECACC European Collection of Cell Cultures (UK). Breast cancer cell line JIMT-1 and gastric carcinoma cell line MKN-45 were purchased from Deutsche Sammlung von Mikroorganismen and Zellkulturen GmbH (Germany); KPL-4, a human breast cancer cell line was kindly provided by Prof. J Kurebayashi (Kawasaki Medical School, Kurashiki, Japan). […] The LICR-LON-HN5 head and neck carcinoma cell line (HN5) was a gift from the Institute of Cancer Research, Surrey, U.K. HN5C12 was developed by single-cell cloning of HN5 followed by exposure to increasing concentrations of lapatinib. […] Cell growth inhibition was determined via CellTiter-Glo cell viability assays. […] ATP levels were determined by adding Cell Titer Glo0 (Promega), incubating for 20 minutes then the luminescent signal was read on the SpectraMax M5 plate with a 0.5 second integration time. Cell growth was calculated relative to vehicle (DMSO) treated control wells. […] CI values were calculated with the interpolated IC50 values and the mutually non-exclusive equation derived by Chou and […](a)+Db/IC50(b)+(Da×Db)/(IC50(a)×IC50(b)) where IC50(a) is the IC50 of the inhibitor A; IC50(b) is the IC50 for the inhibitor B; […] […] EOHSA at each dose was calculated as the minimum difference in average % inhibition between the combination and each monotherapy, from the appropriate ANOVA contrast. […]

IC50 ([1]; eso_OE33, +HGF): > 687 nM
IC50 ([1]; eso_OE33, −HGF): > 687 nM
IC50 ([3]; gastric_N87, +HGF): > 687 nM
IC50 ([3]; gastric_N87, −HGF): > 687 nM
Substance: Trastuzumab: humanized monoclonal antibody which binds to the extracellular segment of the HER2 receptor and inhibits HER2 signaling
cell growth inhibition ([1]; OE-33, 5 days of treatment): no significant inhibition
cell growth inhibition [2]: 35%
cell growth inhibition ([3]; N87, 5 days of treatment): no significant inhibition
cell growth inhibition [4]: no significant inhibition

From US20130150363A1, “Method of Treating Cancer Using a cMET and AXL Inhibitor and an ErbB Inhibitor” (GlaxoSmithKline, priority 2008, published 2013)
